The text below walks through data of ChEMBL document CHEMBL2385045, “Discovery of novel 4-(2-fluorophenoxy)quinoline derivatives bearing 4-oxo-1,4-dihydrocinnoline-3-carboxamide moiety as c-Met kinase inhibitors” (Bioorg Med Chem, 2013).

SMILES strings stand for the structures.

The target of the assay is Hepatocyte growth factor receptor (Homo sapiens, UniProt P08581). Put plainly: Inhibition of c-Met (unknown origin). The gist of the method:
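HTRF kinase assay on plates precoated with 20 µg/mL poly(Glu,Tyr) 4:1. ATP (10 mM solution) in 50 mM HEPES pH 7.0 buffer with DTT, MgCl₂, MnCl₂ and 0.1% NaN₃. Compound in 1% DMSO; reaction started with purified kinase and run 30 min at 25 °C. Stopped with Streptavidin-XL665 plus TK antibody cryptate and read at 320/615. Inhibition relative to enzyme and no-enzyme controls; IC50 from the inhibition curves.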

Turning to `COc1cc2nccc(Oc3ccc(NC(=O)c4c(C)n(C)n(-c5ccccc5)c4=O)cc3F)c2cc1OC`, half-maximal inhibition (IC50) required 1 nM.
